Assay results from PMC7403315, “Cyclic peptide FXII inhibitor provides safe anticoagulation in a thrombosis model and in artificial lungs” (Nature Communications, 2020).

Amino acid sequences for entries named in this document (tags omitted). Residues count along the entry.
UniProt P00748, 373-615 limits assumed: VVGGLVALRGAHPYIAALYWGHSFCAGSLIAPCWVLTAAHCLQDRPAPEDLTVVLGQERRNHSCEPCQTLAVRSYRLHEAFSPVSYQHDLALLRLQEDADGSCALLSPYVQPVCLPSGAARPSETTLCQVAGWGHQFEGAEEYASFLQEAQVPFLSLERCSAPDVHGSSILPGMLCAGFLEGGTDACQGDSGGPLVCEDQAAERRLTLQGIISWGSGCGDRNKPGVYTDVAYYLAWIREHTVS

Experiments:
human β-FXIIa = biological target: T1, human β-FXIIa (Homo sapiens, UniProt P00748); test: FXIIa protease inhibition assay with fluorogenic substrate Boc-Gln-Gly-Arg-AMC; type: biochemical
T1 construct: human β-FXIIa (Molecular Innovations cat #); purchased Molecular Innovations HFXIIAB; host or cells: human blood
Procedure: (§1) In order to test the inhibitory activity of peptides without prior purification, we developed the following method. […] After solid-phase peptide synthesis, cleavage, and ether precipitation, the peptides were chemically cyclized and their Ki values were determined in a FXIIa activity assay using a fluorogenic substrate.
(§2) Protease inhibition assays
(§3) The inhibitory activity of peptides was determined by measuring the residual protease activity with a fluorogenic substrate. The assay was performed in buffer containing 10 mM Tris-Cl, pH […]
(§4) 1% (v/v) DMSO in a volume of 150 µl. FXIIa activity was measured with the fluorogenic substrate Boc-Gln-Gly-Arg-AMC (Bachem) at a final concentration of 50 µM. Mouse α-FXIIa (Molecular Innovations cat # MFXIIA) and human β-FXIIa (Molecular Innovations cat # HFXIIAB) were used at final concentrations of 0.4 nM. The reaction was pipetted as follows: 50 µl of bicyclic peptide in assay buffer were added to 50 µl of FXIIa in assay buffer and incubated for 10 minutes at 25°C before 50 µl of 150 µM fluorogenic substrate in assay buffer were added to measure the residual protease activity with an Infinite M200Pro fluorescence plate reader (excitation at 368 nm, emission at 467 nm; Tecan) for a period of 30 minutes with a read every minute at 25°C. The Tecan software i-control (version 1.1) was used for data analysis. Stock solutions of 1 mM bicyclic peptide were prepared by either dissolving the unpurified cyclization reaction with water or by dissolving purified and lyophilized peptide in water. The bicyclic peptides were serially diluted two-fold using assay buffer. Sigmoidal curves were fitted to the data using the following dose response equation (1), wherein x = peptide concentration, y = % protease activity, and p = Hill slope. IC50 values were derived from the fitted curve.
(§5) The inhibition constants (Ki) were calculated according to the equation of Cheng and Prusoff, Ki = IC50/(1+([S]0/Km), wherein IC50 is the functional strength of the inhibitor, [S]0 is the total substrate concentration, and Km is the Michaelis-Menten constant. […]
(§6) the substrate Boc-Gln-Gly-Arg-AMC. […]

Mouse α-FXIIa = biological target: T2, Mouse α-FXIIa (Mus musculus, UniProt Q80YC5); test: as above; type: biochemical; conditions: for IC50: read-out: IC50 Mouse FXIIa, crude, coumarin labeled peptides, individual plates; for Ki: read-out: Ki mouse FXIIa, crude bicyclic peptide carrying C-terminal coumarin amino acid
T2 construct: Mouse α-FXIIa; purchased Molecular Innovations MFXIIA
T2 sequence (Q80YC5 355-597 limits assumed): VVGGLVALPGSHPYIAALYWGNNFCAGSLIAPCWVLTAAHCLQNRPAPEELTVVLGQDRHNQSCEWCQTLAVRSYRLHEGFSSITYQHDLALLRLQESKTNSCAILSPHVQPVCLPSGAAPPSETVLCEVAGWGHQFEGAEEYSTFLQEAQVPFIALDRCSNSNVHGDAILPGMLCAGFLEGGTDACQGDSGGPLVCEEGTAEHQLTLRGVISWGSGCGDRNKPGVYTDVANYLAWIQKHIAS
T2 sequence (Q80YC5 20-354 limits assumed): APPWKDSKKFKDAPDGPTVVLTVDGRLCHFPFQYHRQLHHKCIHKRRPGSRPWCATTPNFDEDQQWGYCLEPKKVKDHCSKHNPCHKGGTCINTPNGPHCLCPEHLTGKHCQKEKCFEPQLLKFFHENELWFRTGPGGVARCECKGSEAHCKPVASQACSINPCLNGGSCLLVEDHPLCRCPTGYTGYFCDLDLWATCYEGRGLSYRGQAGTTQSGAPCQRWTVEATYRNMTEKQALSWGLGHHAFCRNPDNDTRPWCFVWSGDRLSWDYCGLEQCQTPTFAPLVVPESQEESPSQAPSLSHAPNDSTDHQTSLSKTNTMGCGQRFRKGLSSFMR
Procedure: as §1, §2, §3, §4, §5, §6

[1] = read-out: IC50 Human FXIIa; crude, coumarin labeled peptides; individual plates
[2] = read-out: Ki human FXIIa; crude bicyclic peptide carrying C-terminal coumarin amino acid

IC50 (human β-FXIIa; crude, coumarin labeled peptides; individual plates; read-out: IC50 Human FXIIa)	Compound	IC50 (human β-FXIIa; [1])	Ki (human β-FXIIa; [2])	IC50 (Mouse α-FXIIa)	Ki (Mouse α-FXIIa)
–	srCFRLPCRQLRCR [R1sr]	66.6 nM and 74.1 nM	59 nM	892 nM	750 nM
–	qrCFRLPCRQLRCR [R1qr]	41.3 nM and 34.2 nM	32 nM	291 nM and 306 nM	250 nM
–	raCFRLPCRQLRCR [R1ra]	14.5 nM and 15.1 nM	12.4 nM	95.2 nM and 101 nM and 118 nM	88 ± 4 nM
–	arCFRLPCRQLRCR [R1ar]	34.3 nM and 43.3 nM	32 nM	418 nM	350 nM
–	frCFRLPCRQLRCR [R1fr]	22.3 nM and 30.6 nM	22 nM	204 nM and 242 nM	190 nM
–	lrCFRLPCRQLRCR [R1lr]	14.1 nM and 23.4 nM	16 nM	142 nM and 170 nM	131 nM
–	rqCFRLPCRQLRCR [R1rq]	22.2 nM and 27.2 nM	21 nM	167 nM and 215 nM	160 nM
23.4 nM	CC(C)C[C@@H]1NC(=O)[C@H](CCC(N)=O)NC(=O)[C@H](CCCNC(=N)N)NC(=O)[C@@H]2CSCCC(=O)N3CN(CN(C3)C(=O)CCSC[C@H](NC(=O)[C@@H](N)CCCNC(=N)N)C(=O)N[C@@H](Cc3ccccc3)C(=O)N[C@@H](CCCNC(=N)N)C(=O)N[C@@H](CC(C)C)C(=O)N3CCC[C@H]3C(=O)N2)C(=O)CCSC[C@@H](C(=O)N[C@@H](CCCNC(=N)N)C(N)=O)NC(=O)[C@H](CCCNC(=N)N)NC1=O [FXII618, RCFRLPCRQLRCR]	–	–	–	–
–	rfCFRLPCRQLRCR [R1rf]	42.5 nM and 44.3 nM	36.3 nM	206 nM and 308 nM	220 nM
–	rlCFRLPCRQLRCR [R1rl]	95 nM and 103 nM	83 nM	521 nM	440 nM

“And” between values parts separate entries of the source, which are not always exact repeats. Equal values may be shown once. Read-outs that look alike come from different tables or passages of the source.
